Assay results published in paper PMC7445463 (Diabetologia, 2020).

Test system: SD rat islets
Assay: Perifusion of rat islets, GSIS
Type: cell-based
Conditions: step-wise or gradient assays

Compound: CC[C@H](C)[C@H](NC(=O)[C@H](CO)NC(=O)[C@H](Cc1ccc(O)cc1)NC(=O)[C@H](CC(=O)O)NC(=O)[C@H](CO)NC(=O)[C@@H](NC(=O)[C@H](Cc1ccccc1)NC(=O)[C@@H](NC(=O)CNC(=O)[C@H](CCC(=O)O)NC(=O)[C@H](C)NC(=O)[C@@H](N)Cc1ccc(O)cc1)[C@@H](C)O)[C@@H](C)CC)C(=O)N[C@@H](C)C(=O)N[C@@H](CCSC)C(=O)N[C@@H](CC(=O)O)C(=O)N[C@@H](CCCCN)C(=O)N[C@H](C(=O)N[C@@H](Cc1c[nH]cn1)C(=O)N[C@@H](CCC(N)=O)C(=O)N[C@@H](CCC(N)=O)C(=O)N[C@@H](CC(=O)O)C(=O)N[C@@H](Cc1ccccc1)C(=O)N[C@H](C(=O)N[C@@H](CC(N)=O)C(=O)N[C@@H](Cc1c[nH]c2ccccc12)C(=O)N[C@@H](CC(C)C)C(=O)N[C@@H](CC(C)C)C(=O)N[C@@H](C)C(=O)N[C@@H](CCC(N)=O)C(=O)N[C@@H](CCCCN)C(=O)NCC(=O)N[C@@H](CCCCN)C(=O)N[C@@H](CCCCN)C(=O)N[C@@H](CC(N)=O)C(=O)N[C@@H](CC(=O)O)C(=O)N[C@@H](Cc1c[nH]c2ccccc12)C(=O)N[C@@H](CCCCN)C(=O)N[C@@H](Cc1c[nH]cn1)C(=O)N[C@@H](CC(N)=O)C(=O)N[C@H](C(=O)N[C@H](C(=O)N[C@@H](CCC(N)=O)C(=O)O)[C@@H](C)O)[C@@H](C)CC)C(C)C)[C@@H](C)CC [GIP]
- potency relative to GLP-1 to potentiate GSIS: at least 3 fold
